The values that follow come from article PMC10541190 (The Journal of Clinical Investigation, 2023).

Data set [1] concerns Huh7 cells. To be noted: human.
For data set [2], the system named is Vero cells.

Read-outs that look alike come from different tables or passages of the source.

Turning to `O=C(CCCN1CCC2(CC1)C(=O)NCN2c1ccccc1)c1ccc(F)cc1` [Spiperone], the “Huh7 cell viability (%)” value in data set [1] (0.37 µM) worked out at 97.22%.

As to `CN(C)C(=O)C(CCN1CCC(O)(c2ccc(Cl)cc2)CC1)(c1ccccc1)c1ccccc1` [Lopera-mide], the “Cell viability (%)” value in data set [2] (African green monkey, 20 µM) came to 101.82%.

On to `O=C(CCCN1CCC2(CC1)C(=O)NCN2c1ccccc1)c1ccc(F)cc1` [Spipe-rone], for which the “Cell viability (%)” value is reported as 101.99% in data set [2] (1.25 μM) and 101.53% in data set [2] (20 μM).

With `CN(C)C(=O)C(CCN1CCC(O)(c2ccc(Cl)cc2)CC1)(c1ccccc1)c1ccccc1` [Loperamide], the “Huh7 cell viability (%)” value is 96.82% in data set [1] (0.37 µM) and 96.17% in data set [1] (1.111 µM).
